System: mice
Assay: Spontaneous locomotor activity
Conditions: D2AAK4 100 mg/kg i.p.; amphetamine 5 mg/kg s.c.; versus control group

Structure (SMILES) | spontaneous locomotor activity (distance traveled, 30 min)
O=C(Nc1ccccc1O)C1CCN(CCCn2c(=O)[nH]c3ccccc32)CC1 [D2AAK4, N-(2-hydroxyphenyl)-1-[3-(2-oxo-2,3-dihydro-1H-benzimidazol-1-yl)propyl]piperidine-4-carboxamide] | did not significantly change locomotor activity
C[C@H](N)Cc1ccccc1.C[C@H](N)Cc1ccccc1.O=S(=O)(O)O [amphetamine, d-amphetamine sulphate, reference compound] | increased the locomotor activity
